Format in all cases: cell-based
The target of assay [1] is T1, CREB-binding protein/Histone acetyltransferase p300 (Homo sapiens) (UniProt Q09472+Q92793). The experiment in a line: Inhibition of EP300/CBP in human 22Rv1 cells assessed as downregulation of full length AR protein expression by measuring FL-AR protein level at 2 uM after 48 hrs by Western blot analysis relative to control.
For assay [2], the target named is T1, CREB-binding protein/Histone acetyltransferase p300 (Homo sapiens). Nature of the assay: Inhibition of EP300/CBP in human 22Rv1 cells assessed as downregulation of full length AR protein expression by measuring FL-AR protein level at 1 uM after 48 hrs by Western blot analysis relative to control.
Assay [3] shares this target. The experiment in a line: Inhibition of EP300/CBP in human 22Rv1 cells assessed as downregulation of full length AR protein expression by measuring FL-AR protein level at 4 uM after 48 hrs by Western blot analysis relative to control.
For assay [4] the target is unchanged. Nature of the assay: Inhibition of EP300/CBP in human 22Rv1 cells assessed as downregulation of full length AR protein expression by measuring FL-AR protein level at 8 uM after 48 hrs by Western blot analysis relative to control.
Assay [5] shares this target. The experiment in a line: Inhibition of EP300/CBP in human 22Rv1 cells assessed as downregulation of full length AR protein expression by measuring FL-AR protein level at 16 uM after 48 hrs by Western blot analysis relative to control.
For assay [6] the target is unchanged. The experiment in a line: Inhibition of EP300/CBP in human 22Rv1 cells assessed as downregulation of AR-V7 protein expression by measuring AR-V7 protein level at 1 uM after 48 hrs by Western blot analysis relative to control.
The target is the same in assay [7]. Nature of the assay: Inhibition of EP300/CBP in human 22Rv1 cells assessed as downregulation of AR-V7 protein expression by measuring AR-V7 protein level at 2 uM after 48 hrs by Western blot analysis relative to control.
For assay [8] the target is unchanged. The experiment in a line: Inhibition of EP300/CBP in human 22Rv1 cells assessed as downregulation of AR-V7 protein expression by measuring AR-V7 protein level at 4 uM after 48 hrs by Western blot analysis relative to control.
Assay [9] has the same target. Nature of the assay: Inhibition of EP300/CBP in human 22Rv1 cells assessed as downregulation of AR-V7 protein expression by measuring AR-V7 protein level at 8 uM after 48 hrs by Western blot analysis relative to control.
The target is the same in assay [10]. Nature of the assay: Inhibition of EP300/CBP in human 22Rv1 cells assessed as downregulation of AR-V7 protein expression by measuring AR-V7 protein level at 16 uM after 48 hrs by Western blot analysis relative to control.

Amino acid sequences for entries named in this document (tags omitted).
UniProt Q09472, whole entry, looked up: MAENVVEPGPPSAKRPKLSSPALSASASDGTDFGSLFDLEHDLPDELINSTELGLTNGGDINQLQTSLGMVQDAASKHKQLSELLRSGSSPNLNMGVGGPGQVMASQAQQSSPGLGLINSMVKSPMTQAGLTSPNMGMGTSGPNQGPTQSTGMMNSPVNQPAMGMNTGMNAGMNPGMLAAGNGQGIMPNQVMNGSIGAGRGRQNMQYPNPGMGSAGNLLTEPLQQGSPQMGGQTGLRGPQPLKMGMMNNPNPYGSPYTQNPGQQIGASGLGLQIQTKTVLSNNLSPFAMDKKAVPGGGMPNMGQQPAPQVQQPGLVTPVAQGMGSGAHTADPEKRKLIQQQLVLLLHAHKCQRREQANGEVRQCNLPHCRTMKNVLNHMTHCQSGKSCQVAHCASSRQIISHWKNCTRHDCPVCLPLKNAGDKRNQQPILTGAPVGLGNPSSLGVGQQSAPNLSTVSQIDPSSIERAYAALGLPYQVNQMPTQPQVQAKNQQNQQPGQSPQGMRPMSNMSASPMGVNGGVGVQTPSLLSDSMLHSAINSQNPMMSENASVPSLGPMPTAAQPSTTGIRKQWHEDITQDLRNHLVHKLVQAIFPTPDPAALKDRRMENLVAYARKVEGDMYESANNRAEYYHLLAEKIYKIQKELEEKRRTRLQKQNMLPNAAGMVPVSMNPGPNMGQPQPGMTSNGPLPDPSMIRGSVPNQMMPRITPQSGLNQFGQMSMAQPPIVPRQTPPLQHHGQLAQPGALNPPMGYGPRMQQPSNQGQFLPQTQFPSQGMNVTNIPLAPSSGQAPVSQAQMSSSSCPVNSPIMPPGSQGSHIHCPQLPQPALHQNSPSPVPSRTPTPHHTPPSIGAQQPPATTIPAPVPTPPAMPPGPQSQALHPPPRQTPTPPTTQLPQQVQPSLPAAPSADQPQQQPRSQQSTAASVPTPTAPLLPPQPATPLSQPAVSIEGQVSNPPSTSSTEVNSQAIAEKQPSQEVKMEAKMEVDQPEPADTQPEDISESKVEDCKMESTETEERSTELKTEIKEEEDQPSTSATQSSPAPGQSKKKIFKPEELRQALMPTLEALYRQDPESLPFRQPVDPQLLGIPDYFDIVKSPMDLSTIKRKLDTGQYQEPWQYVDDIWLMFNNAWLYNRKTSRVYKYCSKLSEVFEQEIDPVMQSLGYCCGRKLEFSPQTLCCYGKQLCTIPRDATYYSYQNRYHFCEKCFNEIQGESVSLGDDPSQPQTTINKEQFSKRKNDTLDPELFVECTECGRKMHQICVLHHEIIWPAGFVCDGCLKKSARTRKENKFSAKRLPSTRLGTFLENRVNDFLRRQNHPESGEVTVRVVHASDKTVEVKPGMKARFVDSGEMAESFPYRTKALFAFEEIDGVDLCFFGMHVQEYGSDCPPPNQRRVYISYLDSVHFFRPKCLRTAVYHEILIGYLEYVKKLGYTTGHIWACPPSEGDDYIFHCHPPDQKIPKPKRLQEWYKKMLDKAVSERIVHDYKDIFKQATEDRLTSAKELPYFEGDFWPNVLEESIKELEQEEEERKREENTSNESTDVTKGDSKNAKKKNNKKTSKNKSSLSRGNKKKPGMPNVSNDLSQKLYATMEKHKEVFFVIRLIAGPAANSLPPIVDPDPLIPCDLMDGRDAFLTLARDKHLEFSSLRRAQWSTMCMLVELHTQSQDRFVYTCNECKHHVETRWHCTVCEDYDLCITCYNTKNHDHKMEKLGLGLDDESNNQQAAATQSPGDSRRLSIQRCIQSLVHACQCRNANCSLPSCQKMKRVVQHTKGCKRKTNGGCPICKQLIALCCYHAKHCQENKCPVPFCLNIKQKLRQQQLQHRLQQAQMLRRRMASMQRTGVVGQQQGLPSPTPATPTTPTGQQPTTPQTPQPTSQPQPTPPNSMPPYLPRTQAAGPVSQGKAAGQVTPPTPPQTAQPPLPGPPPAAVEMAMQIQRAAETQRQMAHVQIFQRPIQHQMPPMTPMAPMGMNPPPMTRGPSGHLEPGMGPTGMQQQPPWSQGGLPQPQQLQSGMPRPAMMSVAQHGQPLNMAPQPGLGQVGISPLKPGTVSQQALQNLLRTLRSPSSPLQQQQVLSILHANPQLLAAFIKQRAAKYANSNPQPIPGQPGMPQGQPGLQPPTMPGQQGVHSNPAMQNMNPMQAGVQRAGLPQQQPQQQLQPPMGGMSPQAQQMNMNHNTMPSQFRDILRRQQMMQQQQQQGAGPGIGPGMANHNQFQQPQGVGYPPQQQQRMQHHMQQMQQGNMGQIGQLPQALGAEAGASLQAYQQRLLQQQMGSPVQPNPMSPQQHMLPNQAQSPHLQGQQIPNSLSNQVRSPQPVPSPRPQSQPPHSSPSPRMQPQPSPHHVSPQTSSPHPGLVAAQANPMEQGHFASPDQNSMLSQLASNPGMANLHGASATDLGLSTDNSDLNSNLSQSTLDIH
UniProt Q92793, whole entry, looked up: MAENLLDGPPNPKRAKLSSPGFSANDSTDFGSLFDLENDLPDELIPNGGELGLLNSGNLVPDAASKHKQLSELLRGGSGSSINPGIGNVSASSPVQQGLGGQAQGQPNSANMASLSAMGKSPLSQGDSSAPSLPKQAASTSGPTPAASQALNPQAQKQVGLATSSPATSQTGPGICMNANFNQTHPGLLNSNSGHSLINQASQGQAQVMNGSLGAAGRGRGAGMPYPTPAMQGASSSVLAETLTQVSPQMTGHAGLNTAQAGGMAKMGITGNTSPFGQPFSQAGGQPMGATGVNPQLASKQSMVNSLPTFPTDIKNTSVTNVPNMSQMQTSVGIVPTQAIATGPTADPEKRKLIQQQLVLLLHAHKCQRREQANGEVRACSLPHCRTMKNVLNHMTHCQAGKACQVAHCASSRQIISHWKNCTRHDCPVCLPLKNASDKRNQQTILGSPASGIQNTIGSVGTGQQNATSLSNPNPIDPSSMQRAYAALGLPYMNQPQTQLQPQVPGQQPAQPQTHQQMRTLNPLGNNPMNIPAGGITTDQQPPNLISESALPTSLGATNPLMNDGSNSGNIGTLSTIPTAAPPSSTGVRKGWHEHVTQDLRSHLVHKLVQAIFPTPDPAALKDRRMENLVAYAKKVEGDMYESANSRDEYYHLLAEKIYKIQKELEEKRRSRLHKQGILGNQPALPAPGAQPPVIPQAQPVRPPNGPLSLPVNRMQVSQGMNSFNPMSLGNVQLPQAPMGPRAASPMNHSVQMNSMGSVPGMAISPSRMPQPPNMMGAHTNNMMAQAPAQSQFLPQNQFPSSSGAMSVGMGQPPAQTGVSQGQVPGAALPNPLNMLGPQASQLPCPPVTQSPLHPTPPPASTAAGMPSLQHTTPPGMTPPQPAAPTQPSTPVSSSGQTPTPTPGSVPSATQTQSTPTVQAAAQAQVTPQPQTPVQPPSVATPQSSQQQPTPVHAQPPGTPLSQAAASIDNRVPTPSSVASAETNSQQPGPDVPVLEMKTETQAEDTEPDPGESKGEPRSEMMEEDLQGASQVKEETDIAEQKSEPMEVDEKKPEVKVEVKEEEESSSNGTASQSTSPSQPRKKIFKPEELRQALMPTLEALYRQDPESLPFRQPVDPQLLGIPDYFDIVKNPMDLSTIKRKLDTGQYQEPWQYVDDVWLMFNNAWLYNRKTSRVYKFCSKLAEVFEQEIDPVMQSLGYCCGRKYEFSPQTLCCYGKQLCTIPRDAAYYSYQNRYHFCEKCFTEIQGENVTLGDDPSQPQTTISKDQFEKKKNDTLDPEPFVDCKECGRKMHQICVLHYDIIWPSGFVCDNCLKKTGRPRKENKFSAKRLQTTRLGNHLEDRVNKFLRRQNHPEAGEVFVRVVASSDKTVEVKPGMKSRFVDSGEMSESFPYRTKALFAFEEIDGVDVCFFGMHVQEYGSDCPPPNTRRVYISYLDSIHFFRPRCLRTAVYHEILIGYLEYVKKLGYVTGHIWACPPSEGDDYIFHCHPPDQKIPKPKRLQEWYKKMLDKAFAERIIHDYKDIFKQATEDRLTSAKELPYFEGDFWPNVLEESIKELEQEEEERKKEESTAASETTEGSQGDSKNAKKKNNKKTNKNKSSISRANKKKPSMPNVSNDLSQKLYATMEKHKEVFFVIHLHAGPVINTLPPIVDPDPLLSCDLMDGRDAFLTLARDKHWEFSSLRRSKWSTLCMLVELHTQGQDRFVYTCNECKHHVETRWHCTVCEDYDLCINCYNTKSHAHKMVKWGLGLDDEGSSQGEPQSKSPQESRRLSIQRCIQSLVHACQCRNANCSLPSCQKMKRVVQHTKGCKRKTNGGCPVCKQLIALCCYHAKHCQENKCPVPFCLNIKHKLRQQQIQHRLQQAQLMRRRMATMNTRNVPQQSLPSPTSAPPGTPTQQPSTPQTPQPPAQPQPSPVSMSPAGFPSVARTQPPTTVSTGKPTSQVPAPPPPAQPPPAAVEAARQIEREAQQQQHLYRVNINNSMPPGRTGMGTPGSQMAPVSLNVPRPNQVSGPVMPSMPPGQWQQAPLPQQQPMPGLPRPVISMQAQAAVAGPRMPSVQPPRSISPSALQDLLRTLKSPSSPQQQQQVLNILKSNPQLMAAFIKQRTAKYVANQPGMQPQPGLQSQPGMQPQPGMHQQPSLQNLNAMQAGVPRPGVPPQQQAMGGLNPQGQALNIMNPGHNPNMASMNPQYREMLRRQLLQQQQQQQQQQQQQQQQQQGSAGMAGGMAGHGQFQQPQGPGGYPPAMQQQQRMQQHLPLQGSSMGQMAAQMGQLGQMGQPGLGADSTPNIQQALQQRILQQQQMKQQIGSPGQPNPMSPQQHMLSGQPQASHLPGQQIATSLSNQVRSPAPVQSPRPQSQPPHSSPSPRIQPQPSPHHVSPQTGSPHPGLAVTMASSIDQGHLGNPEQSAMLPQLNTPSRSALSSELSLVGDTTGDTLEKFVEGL

As for `COc1ccc2c(c1)c(C(=O)Nc1cc(C(=O)OC(C)(C)C)cc(-c3cnn(C)c3)c1F)cn2C(C)=O`, the fold change (FC) was determined as 0.81 in [1]; 1.04 in [2]; 0.88 in [3]; 0.78 in [4]; 0.3 in assay [5]; 0.84 in assay [6]. Further, the fold change (FC) amounted to 0.81 in assay [7], 0.76 in [8], 0.27 in [9] and 0 in assay [10].
